ALP activity and RANKL expression levels data for 1 molecule are collected here from patent US20100260680A1, “NOVEL BONE MASS INCREASING AGENT” (ORIENTAL YEAST CO., LTD., priority 2007, published 2010).

One experiment relates to C2C12 cells. As to the kind of experiment: ALP activity determination in C2C12 cells. The format is cell-based, mouse. The conditions noted are these: 100 and 200 ng/ml BMP-2 alone; 6 days. The protocol: Seven days after differentiation, the culture supernatant was removed from each plate and the cells were fixed with an acetone/ethanol solution. The ALP activity was determined using p-nitrophenyl phosphate as a substrate. Specifically, a carbonate buffer (5 mM MgCl2, 50 mM NaHCO3) containing p-nitrophenyl phosphate (Nacalai) (1 mg/mL) was added to each well (100 μL/well), followed by incubation at 37° C. Then, the OD value at 405 nm was determined with the use of a microplate reader (BMG Labtech) for each well.
C2C12 cells, which are mouse myoblast precursor cells, were seeded on a 96-well plate (6.5×10^3 cells/well). After 48 hours, the culture supernatant was replaced with 5% FBS+DMEM (SIGMA) containing 300 ng/mL BMP-2 (R&D). During medium replacement, an antibody (100 ng/mL) was added thereto, followed by culture for 7 days.
In order to examine synergistic effects of peptide D and BMP-2, ALP activity determination was carried out using C2C12 cells in which ALP activity enhancement takes place depending on the addition of BMP-2. C2C12 cells mixed with 5% FBS+αMEM (SIGMA) were seeded on a 96-well plate (1×10^4 cells/well). After 6 hours, the medium was removed therefrom. […]

A further experiment deals with mouse RANKL. In words: RT-PCR of RANKL expression in C2C12 cells. The note with it: 100 ng/mL BMP-2; 36 hours. The format is cell-based. On the procedure: C2C12 cells were seeded on a 96-well plate (5×10^3 cells/well). BMP-2 was added thereto in a manner such that the concentration thereof became 100 ng/mL after cell adhesion. After 36 hours, a TRIZOL solution (Invitrogen) (84 μL) was added to each well for cell lysis, thereby causing RNA extraction. A sample was prepared by collecting the resultants from 6 wells per group. Chloroform (Wako) (0.1 mL) was added to the sample, followed by vigorous end-over-end mixing and centrifugation under conditions of 4° C. at 12000×g for 15 minutes. The supernatant was collected in a new tube. Isopropanol (Nacalai) (0.25 mL) was added thereto, followed by end-over-end mixing. The resultant was left at room temperature for 10 min, followed by centrifugation under conditions of 4° C. at 12000×g for 10 minutes. The supernatant was removed therefrom. Then, 70% ethanol (1 mL) was added thereto, followed by centrifugation under conditions of 4° C. at 12000×g for 5 minutes. The further supernatant was removed therefrom. The RNA concentration thereof was determined, and 2 μg of the resultant was subjected to RT-PCR. RT-PCR was performed using ThermoScript RT-PCR System (Invitrogen) and random primers. After cDNA synthesis, PCR was performed using primers specific to mouse RANKL. For standardization, PCR was performed using primers specific to mouse GAPDH. The PCR primer sequences used are shown below. […]

B1: BMP-2: BMP-2 (R&D), known bone morphogenetic factor used as positive control (protein, UniProt P12643 283-396, looked up)
Bone morphogenetic protein 2: QAKHKQRKRLKSSCKRHPLYVDFSDVGWNDWIVAPPGYHAFYCHGECPFPLADHLNSTNHAIVQTLVNSVNSKIPKACCVPTELSAISMLYLDENEKVVLKNYQDMVVEGCGCR
For the molecule B1, the ALP activity entry in the experiment with C2C12 cells is on record as “enhanced ALP activity in a concentration-dependent manner”. In the experiment on mouse RANKL, the RANKL expression levels result is listed as “RANKL expression levels in C2C12 cells increase”.
